The target in the assay is T1, Threonine aspartase 1 (Homo sapiens) (UniProt Q9H6P5).
T1 sequence (whole entry): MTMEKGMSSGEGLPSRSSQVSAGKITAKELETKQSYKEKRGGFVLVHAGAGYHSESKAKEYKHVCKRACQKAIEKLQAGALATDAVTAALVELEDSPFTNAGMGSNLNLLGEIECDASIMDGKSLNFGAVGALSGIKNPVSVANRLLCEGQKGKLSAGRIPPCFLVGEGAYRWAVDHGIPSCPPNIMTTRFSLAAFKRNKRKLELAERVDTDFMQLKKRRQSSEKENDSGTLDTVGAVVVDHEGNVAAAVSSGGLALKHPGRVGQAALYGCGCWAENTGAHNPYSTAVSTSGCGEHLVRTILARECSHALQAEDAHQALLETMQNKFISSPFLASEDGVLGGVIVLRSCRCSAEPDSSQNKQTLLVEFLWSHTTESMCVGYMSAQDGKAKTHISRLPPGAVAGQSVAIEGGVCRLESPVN
Nature of the assay: Inhibition of recombinant Taspase1 (unknown origin) at 10 to 1000 uM using [35S]-methionine labeled human MLL1 (2400-2900 residues) as substrate preincubated for 30 mins followed by substrate addition measured after 30 mins by SDS-PAGE based autoradiography.

Active and inactive are the calls of the source. No cut-off for these calls is given here.

Take `O=[N+]([O-])c1cc([As](=O)(O)O)ccc1Cc1ccc([As](=O)(O)O)cc1[N+](=O)[O-]`: the inhibition result was “inactive”.

These data come from ChEMBL document CHEMBL3991945, “TASPASE1 inhibitors and their uses” (2013).
